Only a part is listed here, and it is no random draw. Activity calls are given as the source filed them. No stated cut-off is given here; in the data, active means inhibition above about 21%; inactive means the rest.
Target: Receptor-interacting serine/threonine-protein kinase 2 (Homo sapiens) (UniProt O43353)
Experiment: NOD2-RIPK2 binding disruptors in cells, primary screen, fluorescence, CHO cells, BLA complementation (AID 624267);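 further: 0% = vehicle only and 100% = reference blocker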
Conditions: CHO BLA complementation NOD2-RIPK2, CCF4 ratio; at 4.98 µM; stronger effect = higher value

Protein sequences, listed by entry. Tags and fused reporters are not part of them.
UniProt O43353, whole entry, looked up: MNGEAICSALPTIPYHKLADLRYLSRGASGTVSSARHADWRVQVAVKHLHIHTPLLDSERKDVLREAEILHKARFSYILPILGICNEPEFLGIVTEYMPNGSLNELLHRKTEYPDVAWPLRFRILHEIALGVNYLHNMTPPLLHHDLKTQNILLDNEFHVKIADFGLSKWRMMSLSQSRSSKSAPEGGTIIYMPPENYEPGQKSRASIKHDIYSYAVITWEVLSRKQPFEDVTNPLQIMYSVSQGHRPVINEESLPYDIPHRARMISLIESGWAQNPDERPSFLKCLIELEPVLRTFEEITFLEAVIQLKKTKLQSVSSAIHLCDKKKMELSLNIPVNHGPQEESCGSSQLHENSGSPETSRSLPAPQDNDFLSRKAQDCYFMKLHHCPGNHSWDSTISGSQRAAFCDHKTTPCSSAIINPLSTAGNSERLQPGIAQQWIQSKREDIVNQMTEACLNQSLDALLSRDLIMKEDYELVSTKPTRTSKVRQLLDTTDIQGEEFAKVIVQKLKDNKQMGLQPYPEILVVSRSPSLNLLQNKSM

Compound	inhibition
O=P1(N(CCCl)CCCl)OCCC2CCCCN21 (stereo not given)	inactive: -13.1%
c1ccc(-c2nn[nH]n2)c(-c2nn[nH]n2)c1	inactive: 2.89%
Cc1ccc(NP(=O)(Oc2cccc(C)c2)Oc2cccc(C)c2)nc1	inactive: -13.3%
CCNC(=S)/N=C(\N)N[N+](=O)[O-]	inactive: 6.37%
O=C(NC1CCS(=O)(=O)C1)NP(=S)(Oc1ccccc1)Oc1ccccc1 (stereo not given)	inactive: 5.94%
CC(=O)Nc1ccc([As](=O)(O)O)c(O)c1	inactive: -2.54%
CC(=O)Nc1ccc(Oc2c([N+](=O)[O-])cc([N+](=O)[O-])cc2[N+](=O)[O-])cc1	inactive: -1.06%
Cc1ccccc1CN(C)C(=O)COC(=O)C(O)(c1ccccc1)c1ccccc1	inactive: -6.28%
C[C@H]1OP(=O)(Oc2ccccc2)C[C@@H]2O[C@@H]21 (stereo not given in full)	inactive: 0.77%
C[C@@H]1C=CCP(=O)(Oc2ccccc2)O1 (stereo not given in full)	inactive: 6.56%
CC(=O)c1ccc(N2CC2c2ccncc2)cc1 (stereo not given)	inactive: -2.89%
N#C/C(=C\c1ccc(N(CCBr)CCBr)cc1)C(N)=O	inactive: 8.31%
COC(=O)C1(C)COP(=O)(NCc2ccccc2)OC1 (stereo not given)	inactive: -11.2%
CC(C)(C)C(=O)NC(Sc1ccccc1)C(Cl)(Cl)Cl (stereo not given)	inactive: -13.3%
CCc1cc(O)c([N+](=O)[O-])c(C)c1[N+](=O)[O-]	inactive: 2.21%
O=P1(Nc2nc3ccc(Cl)cc3s2)COc2ccccc2O1 (stereo not given)	inactive: 3.6%
CCOc1ccc(C2=NCC(CBr)S2)cc1 (stereo not given)	inactive: -7.27%
c1nnnn1CCn1cnnn1	inactive: -3.92%
CC(C)C(=O)NC(Sc1ccccc1)C(Cl)(Cl)Cl (stereo not given)	inactive: -3.08%
O=P(Nc1nccs1)(c1ccccc1)c1ccccc1	inactive: 8.78%
O=C(OC1CN2CCC1CC2)c1cccc(Cl)c1 (stereo not given)	inactive: -1.62%
C(Cc1nn[nH]n1)Cc1nn[nH]n1	inactive: -3.98%
Nc1ccc([As](=O)(O)c2ccc([N+](=O)[O-])cc2)cc1	inactive: -3.4%
O=[As](O)(c1ccccc1)c1ccc(O)cc1	inactive: -12.6%
O=[N+]([O-])c1ccc(O)c(/C=N/Nc2ccc([N+](=O)[O-])cc2[N+](=O)[O-])c1	inactive: -1.74%

Compound	inhibition
CC(=O)NC(SC(=S)N(C)C)C(Cl)(Cl)Cl (stereo not given)	inactive: -9.62%
O=[N+]([O-])c1ncn(CCn2cnc([N+](=O)[O-])n2)n1	inactive: -10.1%
O=P(Nc1nc2ccccc2s1)(c1ccccc1)c1ccccc1	inactive: -1.48%
C[C@H]1OP(=O)(Oc2ccccc2)[C@H](O)[C@H](O)[C@H]1N=[N+]=[N-] (stereo not given in full)	inactive: -4.64%
O=P(Nc1ccccn1)(c1ccc(Br)cc1)c1ccc(Br)cc1	inactive: 3.45%
CN(C)C1(CNC(=O)c2ccc(Cl)c(S(N)(=O)=O)c2)CCCCC1	inactive: 8.02%
COc1ccc(N)c([N+](=O)[O-])c1[N+](=O)[O-]	inactive: 2.68%
Nc1ccc(CCCCOc2ccccc2)cc1	inactive: 0.83%
O=C(O)CNc1ccc([As](=O)(O)O)cc1	inactive: 2.05%
COC(=O)C1(C)COP(=O)(Nc2ccccc2)OC1 (stereo not given)	inactive: -4.35%
O=[N+]([O-])c1cccc(NC2=NCC(CBr)S2)c1 (stereo not given)	inactive: -7.94%
O=[N+]([O-])c1ncn(CCn2ncnc2[N+](=O)[O-])n1	inactive: 0.63%
CC(C)(C)C(=O)NC(Sc1ccncn1)C(Cl)(Cl)Cl (stereo not given)	inactive: -3.78%
O=C(Nc1cc([As](=O)(O)O)ccc1O)c1ccccc1	inactive: -7.24%
O=P1(N(CCCl)CCCl)OCCCS1 (stereo not given)	inactive: -11.4%
CC1CCN(C(=O)Oc2c(Cl)cc(Cl)c3cccnc23)CC1	inactive: 2.34%
c1cc(-c2nn[nH]n2)ccc1-c1nn[nH]n1	inactive: -1.75%
CC(C)c1nc(Nc2ccccc2)n(P(=O)(N(C)C)N(C)C)n1	inactive: -6.86%
CC(C)=N/N=C(\N)N[N+](=O)[O-]	inactive: 8.06%
CN(C)C(=O)OCCc1n(C)cc[n+]1C	inactive: 9.44%
CCN(/C(=N/P(=O)(N1CCOCC1)N1CCOCC1)N1CCOCC1)c1ccc(OC)cc1	inactive: -1.19%
Nc1ccc([As](=O)(O)c2ccc(N)cc2)cc1	inactive: -10.2%
C[N+]1=C2C=CC=CC=C2SC12C([N+](=O)[O-])=CC([N+](=O)[O-])=C[C-]2[N+](=O)[O-] (stereo not given)	active: 23.6%
Cc1ccc(NP(=O)(Oc2ccccc2)Oc2ccccc2)nc1	inactive: 0.95%
CCc1nc2c(n1)c1c(non1O)c1c2no[n+]1[O-]	inactive: 3.39%

Compound	inhibition
O=[N+]([O-])c1cc([N+](=O)[O-])c(CCNc2ccccc2)c([N+](=O)[O-])c1	inactive: -1.28%
O=[N+]([O-])c1cccc2n[nH]nc12	inactive: -9.6%
CC(=O)N1C2C3N(C(C)=O)C1C1N(C(C)=O)C(C(N1C(C)=O)N3C(C)=O)N2C(C)=O	inactive: -0.39%
COc1ccc(C2=NCC(CBr)S2)cc1 (stereo not given)	inactive: 1.68%
O=[N+]([O-])C1C(O)C(O)C([N+](=O)[O-])C(O)C1O (stereo not given)	inactive: 0.39%
Oc1ccccc1CNc1ccccn1	inactive: -0.04%
O=C(NC(Sc1ccncn1)C(Cl)(Cl)Cl)c1ccccc1 (stereo not given)	inactive: 4.96%
Nc1cc(N)c2nonc2c1[N+](=O)[O-]	inactive: 2.41%
CC(C)CC(=O)NC(Sc1ccc(Cl)cc1)C(Cl)(Cl)Cl (stereo not given)	inactive: -5.64%
CN1CCCC(OC(=O)C(c2ccccc2)c2ccccc2)C1 (stereo not given)	inactive: -0.98%
Clc1ccc(Cl)c(NC2=NCC(CBr)S2)c1 (stereo not given)	inactive: -0.53%
COc1ccccc1OP(=O)(Nc1ccc(C)cn1)Oc1ccccc1OC	inactive: 0.63%
Cc1ccc(OP(=O)(Nc2nccs2)Oc2ccc(C)cc2)cc1	inactive: -6.66%
Cc1ccc(N/C(=N/P(=O)(N2CCOCC2)N2CCOCC2)N2CCOCC2)cc1	inactive: -0.81%
NC(=O)c1cc([N+](=O)[O-])cc([N+](=O)[O-])c1N	inactive: -8.03%
Nc1cccc2ccc([As](=O)(O)O)cc12	inactive: 2.86%
CCN(N=Nc1nonc1N)c1nonc1N	inactive: -3.92%
Cc1cc(SC(NC(=O)c2ccc(F)cc2)C(Cl)(Cl)Cl)ncn1 (stereo not given)	inactive: -1.01%
CCOP(=O)(Nc1ccccc1)OCC	inactive: -15.2%
Cc1ccc(NP(=O)(Oc2ccccc2F)Oc2ccccc2F)nc1	inactive: 1.63%
O=P(Nc1nc2ccc(Cl)cc2s1)(c1ccccc1)c1ccccc1	inactive: 2.13%
CN(C)P(=O)(N(C)C)n1c(Nc2ccccc2)nnc1-c1ccccc1	inactive: -1.43%
CC(=O)Nc1ccc([As](=O)(O)O)cc1	inactive: 9.03%
O=C(O)c1ccccc1[As](=O)(O)O	inactive: -5.24%
CCCC1OP(N)(=O)OCC1CC (stereo not given)	inactive: -3.25%

Reference: PubChem BioAssay AID624267 (The Scripps Research Institute Molecular Screening Center, 2012)
